Experimental data from publication PMC10979493.

Sequences of proteins named here, by UniProt entry; tags and fusion partners are left off. Residues count along the entry.
UniProt P40763, 586-685 V637A limits assumed: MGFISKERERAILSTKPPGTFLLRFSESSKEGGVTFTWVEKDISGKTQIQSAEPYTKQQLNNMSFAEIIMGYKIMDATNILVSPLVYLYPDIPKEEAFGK

Key:
SH2-V637A = SH2-V637A (Homo sapiens, UniProt P40763, V637A); assay: MST binding to STAT3-SH2 mutant V637A
Excerpt: STAT1 (amino acid residues 127–716), STAT2 (amino acid residues 138–702), STAT3 (amino acid residues 127–722), STAT4 (amino acid residues 133–705), STAT5B (amino acid residues 136–703) and STAT6 (amino acid residues 113–658) were cloned into the pET28A vector. STAT3-SH2 (amino acid residues 586–685) and the mutants of the STAT3-SH2 produced by site-directed mutagenesis were also cloned into the pET28A vector. All recombinant human fusion proteins were expressed in E. coli BL21 (DE3). Then, according to different induction conditions, the protein expression was induced. During the induction of the expression of STAT3-SH2 and all the mutants, STAT1, STAT2, STAT3 and STAT6, when the OD value reached about 0.6–1.0, the E. coli was transferred to 22 °C and 0.5 mM Isopropyl β-D-1-thiogalactopyranoside (IPTG) was added. For the expression of STAT4 and STAT5B when the OD value reached about 0.5–0.6, the E. coli was transferred to 30 °C for 2.5–3 h and 0.2 mM IPTG was added.
Microscale thermophoresis (MST) was conducted as previously described.[28] Binding affinities of YY002, Stattic against purified STAT3^127–722 and STAT3-SH2 protein or YY002 against STAT3-SH2 WT and mutants were measured by a Monolith NT.115 (Nanotemper Technologies). […] The samples were then loaded into premium capillaries (NanoTemper Technologies) and measured at 25 °C using 20%–40% LED power and medium MST power. […]

ROS levels in PDAC cells = assay: Reactive oxygen species (ROS) assay; details: 20 h
Method: Luciferase reporter assay
The HEK293T cells were seeded in 24-well plates, The 500 ng STAT3 luciferase […]
mutation plasmids and 10 ng Renilla plasmids were co-transfection into each well of
plates with Lipofectamine 2000 reagent (Invitrogen) and incubated for 20-24 h. Then,
the cells were added with IL-6 (20 ng/mL). Luciferase assays were performed by using
the Dual Luciferase Reporter Assay System (Promega) according to manufacturer’s
instructions. The firefly luciferase activities were normalized against Renilla luciferase
Mitochondrial membrane potential assay
Mitochondrial membrane potential was assessed following the manufacturer's
instructions (Beyotime, C2006). Briefly, the cells were seeded in 6-well plates, YY002
treated for 24h. Then the cells were washed with PBS and incubated with JC‐1 probe
in 1× dye working buffer for 20 min at 37°C. After washing with cleaning buffer,
JC‐1 monomers and JC‐1 aggregates were detected with Flow cytometry to indicate
mitochondrial membrane potential.
Reactive Oxygen Species (ROS) Assay
ROS assay was performed following the manufacturer's instructions (Beyotime,
S0033S). Briefly, the pancreatic cancer cells were seeded in 6-well plates, YY002
treated for 20h. Then the cells were wash with cold PBS for three times. Dilute 2',7'- […]
DCFH-DA that has not entered the cells. ROS signal was detected by FACS. […]

Capan-2 cells = assay: Capan-2 proliferation (MTS), comparison with STAT3 inhibitors; details: vs C188-9, BP-1–102, Stattic, FLLL32, AZD1480, BBI-608
Method: (§1) acute myeloid leukemia cell line (KG1), human atrial fibroblast (HAF), human […]
(§2) umbilical vein endothelial cell line (HUVEC), human embryonic kidney cell line […]
(§3) (HEK293T) was purchased from Cell Bank/Stem Cell Bank of the Chinese Academy […]
(§4) of Sciences and American Type Culture Collection (ATCC). Capan-2, PANC-1 and […]
(§5) HEK293T were cultured in Dulbecco’s Modified Eagle’s Medium (DMEM) supplemented with 10% fetal bovine serum (FBS) and 1% penicillin-streptomycin, and […]
(§6) additional 2.5% horse serum was added in the medium of MIA PaCa-2; AsPC-1, BxPC- […]
(§7) 3, PC3 and KG1 were cultured in RPMI 1640 medium supplemented with 10%-20% […]
(§8) FBS and 1% penicillin-streptomycin; HPAC was cultured in Dulbecco's Modified […]
(§9) Eagle Medium/Nutrient Mixture F-12 medium (DMEM/F-12), SW1990 was cultured […]
(§10) in Leibovitz's L-15 Medium, CFPAC-1 was cultured in Iscove's Modified Dulbecco's […]
(§11) Medium. HUVEC was cultured in Ham's F-12K supplemented with 0.1mg/mL Heparin, […]
(§12) 0.03-0.05mg/mL ECGs, 10% FBS and 1% penicillin-streptomycin. HAF was cultured […]
(§13) in Fibroblast Medium supplemented with 10% FBS, 1% Fibroblast Growth Supplement […]
(§14) (FGS) and 1% penicillin-streptomycin.
(§15) Cell viability was measured by MTS assay following the manufacturer ’s instructions.
(§16) Briefly, cancer cells or normal cells were seeded in 96-well plates at appropriate […]

OXPHOS = assay: Oxygen consumption rate (OXPHOS), Seahorse; details: BxPC-3, CFPAC-1 and Capan-2 cells
PC3, KG1, HUVEC and HAF = assay: Cell viability (MTS), low p-STAT3 cell lines; details: low level of p-STAT3 cell lines, 72 h
Method: as §1, §2, §3, §4, §5, §6, §7, §8, §9, §10, §11, §12, §13, §14, §15, §16

PANC-1 tumor = assay: PANC-1 xenograft model
complex I = assay: Electron transfer chain experiment, Seahorse; details: Capan-2 cells, 50 nM
MIA PaCa-2 tumor = assay: MIA PaCa-2 xenograft model; details: orally
glycolysis = assay: Glycolysis (ECAR), Seahorse; details: BxPC-3 and CFPAC-1 cells

Cn1c(C(=O)N2CCN(Cc3ccc(OCC(F)(F)F)cc3)CC2)cc2ccc(Oc3cnc(-c4nc(-c5ccc(C(F)(F)F)cc5)no4)cn3)cc21
Binding affinities (nM) (SH2-V637A): did not bind
ROS levels (ROS levels in PDAC cells): significantly increased ROS levels
Antitumor activity, fold better than tested STAT3 inhibitors (Capan-2 cells): approximately 1000 fold
OXPHOS in pancreatic cancer cells (OXPHOS): suppressed OXPHOS in pancreatic cancer cells in a concentration-dependent manner
Sensitivity of proliferation (PC3, KG1, HUVEC and HAF): relative insensitive
Tumor growth inhibition (TGI) rate (PANC-1 tumor; 20 mg/kg, orally): 93.56 ± 1.58%
STAT3 expression in tumors (PANC-1 tumor; immuno-staining): did not suppress STAT3 expression
STAT3 phosphorylation in tumors (PANC-1 tumor; p.o. 5 mg/kg to 20 mg/kg, immuno-staining): significantly suppressed the phosphorylation of STAT3 at Tyr705 and Ser727
Electron transfer chain complex function (complex I): selectively impaired complex I functions
TGI rate (MIA PaCa-2 tumor; 5 mg/kg): 85.06 ± 9.28%
TGI rate (MIA PaCa-2 tumor; 20 mg/kg): 61.24 ± 9.68%
Glycolysis (ECAR) (glycolysis): no significant impact on glycolysis
